{
  "source": "patent US20110171291A1",
  "about": "“PATHOLOGICALLY-ACTIVATED THERAPEUTICS” (Sanford-Burnham Medical Research Institute, priority 2010, published 2011)",
  "target": "T1, NMDAR-coupled ion channel (Rattus norvegicus, UniProt P35439)",
  "T1 construct": "whole-cell recording of an NMDA-evoked current from a solitary neuron obtained with a patch electrode; endogenous in cells; host or cells: solitary neuron",
  "assay": "Whole-cell patch-electrode recording of NMDA-evoked current: kinetics of memantine open-channel block",
  "assay_type": "cell-based",
  "data": [
    {"smiles": "CC12CC3CC(C)(C1)CC(N)(C3)C2", "note": "[memantine]", "values": [
      {"measurement": "Ki", "value": "~1", "unit": "µM"}
    ]}
  ]
}
